From PubChem BioAssay AID504634 (The Scripps Research Institute Molecular Screening Center, 2011)
The list shows a part of the results, in another mix than the full data. The source made the active and inactive calls. Cut-off read from the data, not from the text of the source: active = inhibition mostly above about 23% (no sharp cut-off); inactive = mostly below about 18%.

Amino acid sequences for entries named in this document (tags omitted).
UniProt P47898, whole entry, looked up: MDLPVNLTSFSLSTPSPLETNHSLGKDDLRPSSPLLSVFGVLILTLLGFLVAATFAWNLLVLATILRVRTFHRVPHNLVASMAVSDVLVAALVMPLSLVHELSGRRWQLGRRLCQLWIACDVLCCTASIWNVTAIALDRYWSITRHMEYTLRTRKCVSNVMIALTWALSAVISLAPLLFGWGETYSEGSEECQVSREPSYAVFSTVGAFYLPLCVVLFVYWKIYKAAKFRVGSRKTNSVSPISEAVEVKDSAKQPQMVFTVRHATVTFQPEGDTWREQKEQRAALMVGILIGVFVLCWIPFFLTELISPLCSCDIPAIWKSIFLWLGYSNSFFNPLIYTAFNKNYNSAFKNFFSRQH

What follows are molecules tested against 5-hydroxytryptamine receptor 5A (Homo sapiens) (UniProt P47898) (assay: inverse agonism at human 5-HT5A receptor – cell-based, luminescence, full-deck HTS, counter-screen for OPRM1-OPRD1 heterodimer inverse agonist project, primary screen (AID 504634;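 note: 0% = cells with DMSO and 100% = no-cell wells with DMSO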)). Settings: HTR5A cell line, at 9.3 µM, hits give high values.
`O=P1(Nc2ccccn2)COc2ccccc2OC1` was tested, and the inhibition was inactive: -4.06%. `CC(c1ccccc1)N1CCn2c(nc3cc(NC(=O)NC4CCCCC4)ccc32)C1` (stereo not drawn) was tested, and the inhibition was inactive: 25%. In the case of `CC(C)NC(=O)CSc1nc2ccccc2n1CC(=O)N1CCc2ccccc21`, the inhibition is reported as inactive: -2.35%. In the case of `CC(C)C[C@H](NC(=O)N1CCn2c1nc1ccccc12)C(=O)N[C@@H](C(=O)O)c1ccccc1`, the inhibition is reported as inactive: 4.58%. `CN(C)C1(c2nnnn2CCOC(=O)Nc2ccc(Cl)cc2)CCCCC1` was tested, and the inhibition was inactive: -27.8%. `CC1c2nc3ccccc3n2C(CC(=O)NC2CC2)C(=O)N1Cc1ccccc1` (stereo not drawn) was tested, and the inhibition was inactive: 2.31%. With `CNC(=O)Cn1c(=O)n(C)c2ccccc21` the inhibition was inactive: 10.1%. With `CCN1C(=O)CC(N2CCC(Nc3ccc(F)cc3)CC2)C1=O` (stereo not drawn) the inhibition was inactive: -4.56%. In the case of `CCOP(=O)(Nc1ccc(C)cn1)OCC`, the inhibition is reported as inactive: 3.21%. With `CSc1nc(N)nc2c1ncn2CC(=O)NCCNc1ccc([N+](=O)[O-])cn1` the inhibition was inactive: -1.53%. For `CCOC(=O)Cc1csc(NC(=O)Cn2cnc3c2c(=O)n(C)c(=O)n3C)n1`, the inhibition was inactive: 2.36%. For `CCOc1ccc(C(=O)N2CCn3c2nc2ccccc23)cc1`, the inhibition was inactive: -6.17%. With `CCOC(=O)c1ccc(NC(=O)Cn2cnc3cc(C)c(C)cc32)cc1` the inhibition was inactive: -2.63%. `Cc1ccc(-c2nc(N(C)C3CCN(C)CC3)c3ccccc3n2)cc1` was tested, and the inhibition was inactive: -20.3%. `O=C(Cn1c(CO)nc2ccccc21)NCc1ccc2c(c1)OCO2` was tested, and the inhibition was inactive: 5.4%. `Cc1cccc(N2CCN(C(=O)Cn3cnc4c3c(=O)n(C)c(=O)n4C)CC2)c1C` was tested, and the inhibition was inactive: -0.74%. For `COC(=O)[C@H](CCSC)NC(=O)Cn1cnc2c(OCc3ccccc3)ncnc21`, the inhibition was inactive: 1.57%. For `O=C(Cn1c(COc2ccc(Cl)cc2)nc2ccccc21)NCC(F)(F)F`, the inhibition was inactive: -4.37%. For `C[C@H](O)[C@@H]1C(=O)N2CCc3ccc(-c4cccc(F)c4)cc3[C@@H]2C[C@@H]1N(C)C(=O)C(C)(C)C`, the inhibition was inactive: 12.1%. `CCN(CC)CCn1c(NC(=O)c2ccc(C)cc2)nc2ccccc21` was tested, and the inhibition was inactive: -29.1%. `CN(C(=O)Cc1ccc(Cl)c(Cl)c1)[C@@H]1CCCC[C@H]1N1CCCC1` was tested, and the inhibition was inactive: -6.19%. In the case of `CC(C)/C=N\N=C(\N)N[N+](=O)[O-]`, the inhibition is reported as inactive: -17.7%. For `COc1ccc(CCNC(=O)CCCCCNC(=O)N2CCn3c2nc2ccccc23)cc1OC`, the inhibition was inactive: -10.6%. In the case of `CCC(=O)Nc1ccc2c(c1)nc1n2CCN(C2CCCCC2)C1`, the inhibition is reported as inactive: 7.22%. With `O=C(Nc1nc2ccccc2n1CCN1CCOCC1)c1ccc(COc2ccccc2Br)o1` the inhibition was inactive: -9.99%. With `Fc1ccc(Cn2nnnc2CN2CCC(n3nnc4cc(C(F)(F)F)ccc43)CC2)cc1` the inhibition was inactive: 4.68%. With `CN(C)CCCNC(=S)N1CCn2c(nc3ccccc32)C1` the inhibition was inactive: -26.2%. With `CC1(CBr)Cn2c(nc3ccccc3c2=O)S1` (stereo not drawn) the inhibition was inactive: 13.3%. In the case of `COCCN(C(=O)Cn1c(C(F)(F)F)nc2ccccc21)c1c(N)n(Cc2ccccc2)c(=O)[nH]c1=O`, the inhibition is reported as inactive: -14.6%. `CC(C)CN(C(=O)Cn1c(C(F)(F)F)nc2ccccc21)c1c(N)n(Cc2ccccc2)c(=O)[nH]c1=O` was tested, and the inhibition was inactive: -6.66%. `Brc1ccc(/C=N/c2nc3ccccc3n2CCN2CCOCC2)cc1` was tested, and the inhibition was inactive: 0.75%. `c1coc(CNc2nc3ccccc3n2CCN2CCOCC2)c1` was tested, and the inhibition was inactive: 5.79%. With `O=C(Cn1cnc2c(OCc3ccccc3)ncnc21)NCCc1c[nH]c2ccccc12` the inhibition was inactive: -7.56%. With `CC(CNC(=O)Cn1cnc2c(OCc3ccccc3)ncnc21)c1ccccc1` (stereo not drawn) the inhibition was inactive: -8.1%. For `O=C(CCCCCNC(=O)N1CCn2c1nc1ccccc12)N[C@H](Cc1ccccc1)C(=O)O`, the inhibition was inactive: 0.47%. For `CC1CN(C(=O)Cn2c(C(F)(F)F)nc3ccccc32)CC(C)O1` (stereo not drawn), the inhibition was inactive: -4.86%. `CCc1cccc(NC(=O)Cn2c3[n+](c4ccc(C(F)(F)F)cc42)CCCCC3)c1` was tested, and the inhibition was inactive: 1.57%. In the case of `NC(=O)CC(NC(=O)Cc1ccc(Cl)cc1)c1ccc(NC2CCN(Cc3ccccc3)CC2)c([N+](=O)[O-])c1` (stereo not drawn), the inhibition is reported as inactive: -9.17%. In the case of `Cn1c(=O)n(Cc2ccccc2F)c(=O)c2c1nc1n2CCN1Cc1ccco1`, the inhibition is reported as inactive: 1.24%. `COC(=O)[C@H](Cc1ccccc1)NC(=O)Cn1cnc2c(OCc3ccccc3)ncnc21` was tested, and the inhibition was inactive: -1.13%. For `COc1cccc(NC(=S)N2CCn3c(nc4ccccc43)C2)c1`, the inhibition was inactive: -3.58%. In the case of `CC(C)C[C@H](NC(=O)N1CCn2c1nc1ccccc12)C(=O)NCc1ccc2c(c1)OCO2`, the inhibition is reported as inactive: -7.87%. `Cc1ccc(OCC(O)Cn2c(=N)n(CCN3CCCCC3)c3ccccc32)cc1` (stereo not drawn) was tested, and the inhibition was inactive: 16.6%. For `N=c1n(CCN2CCCCC2)c2ccccc2n1CC(O)c1cccc(Br)c1` (stereo not drawn), the inhibition was inactive: -13.8%. In the case of `CCN(CC)CCn1c(NCc2ccco2)nc2ccccc21`, the inhibition is reported as inactive: -24.4%. For `CS(=O)(=O)N1CCn2c1nc1ccccc12`, the inhibition was inactive: -11.1%. In the case of `Cc1nc2ccccc2n1CC(=O)N/N=C\C=C\c1ccccc1`, the inhibition is reported as inactive: 1.57%. In the case of `CCN(CC)c1ccc(CNc2nc3ccccc3n2CCN2CCCCC2)cc1`, the inhibition is reported as inactive: 10.1%. `Cn1c(=O)c2ncn(CC(=O)N/N=C/C=C/c3ccccc3)c2n(C)c1=O` was tested, and the inhibition was inactive: 0.08%. With `COc1ccccc1C(=O)Nc1ccc2c(c1)nc1n2CCN(Cc2ccccc2)C1` the inhibition was inactive: -7.74%. In the case of `Cc1ccc(NC(=O)C2CC(=O)Nc3nc4ccccc4n32)c(C)c1` (stereo not drawn), the inhibition is reported as inactive: 14.2%. In the case of `O=C(CCNC(=O)N1CCn2c1nc1ccccc12)NCc1ccccc1`, the inhibition is reported as inactive: -1.73%. With `COc1ccc(N(C(=O)Cn2cnc3ccccc32)C(C(=O)NC2CCCCC2)c2ccccc2)cc1` (stereo not drawn) the inhibition was inactive: 4.97%. In the case of `Cc1ccc2c(c1)C1CN(C)CCC1N2C(=O)c1cccc(S(=O)(=O)N2CC(C)CC(C)C2)c1` (stereo not drawn), the inhibition is reported as inactive: 10.1%. For `Cn1c(=O)c2c(nc(N3CCCCC3)n2CCNC2=NCCC2)n(C)c1=O`, the inhibition was inactive: 9.37%. For `COc1ccccc1CNC(=O)COC(=O)C(O)(c1ccccc1)c1ccccc1`, the inhibition was inactive: -0.86%. For `O=C(Cn1cnc2c(OCc3ccccc3)ncnc21)N[C@H](CO)Cc1cc2ccccc2[nH]1`, the inhibition was inactive: 0.69%. For `COc1ccc(Cl)cc1NC(=O)Cn1c(NCCO)nc2ccccc21`, the inhibition was inactive: -12.3%. `CCN1C(=O)CC(N2CCC(Nc3ccc(OC)cc3)CC2)C1=O` (stereo not drawn) was tested, and the inhibition was inactive: 5.9%. `O=C(CSc1nc2ccccc2n1CC(=O)NCc1ccccc1)NCc1ccco1` was tested, and the inhibition was inactive: 3.7%. In the case of `Cn1c(=O)c2ncn(CC(=O)NCCOc3ccc(C(C)(C)C)cc3)c2n(C)c1=O`, the inhibition is reported as inactive: -4.85%. `CC(=O)Nc1ccc(NC(=O)C2CC(=O)Nc3nc4ccccc4n32)cc1` (stereo not drawn) was tested, and the inhibition was inactive: 5.87%. For `O=S(=O)(c1ccc(Br)cc1)N1CCn2c(nc3ccccc32)C1`, the inhibition was inactive: -12.6%. With `Cn1c(=O)c2c(ncn2CC(=O)N/N=C/C=C/c2ccccc2)n(C)c1=O` the inhibition was inactive: 14.4%. For `O=S(=O)(c1ccc(Cl)c(Cl)c1)N1CCc2nc3ccccc3n2CC1`, the inhibition was inactive: -6.12%. With `COc1ccc(CN(C)C(=O)Cn2cnc3c(SC)nc(N)nc32)cc1OC` the inhibition was inactive: 9.51%. With `CC1CC(C)CN(Cc2nc3c(c(=O)n(C)c(=O)n3C)n2CCN2CCOCC2)C1` (stereo not drawn) the inhibition was inactive: 4.67%. With `O=S(=O)(Nc1ccc2c(c1)nc1n2CCN(Cc2ccccc2)C1)c1ccccc1` the inhibition was inactive: -19.3%. For `CCCC1OP(=O)(Nc2ccccc2)OCC1CC` (stereo not drawn), the inhibition was inactive: 2.07%. `O=C(/C=C/c1ccccc1)OC1CN2CCC1CC2` (stereo not drawn) was tested, and the inhibition was inactive: -16.2%. `COc1cccc(NC(=O)Cn2c(SCC(=O)N3CCOCC3)nc3ccccc32)c1` was tested, and the inhibition was inactive: -18.7%. `COc1cccc(C(=O)N2CCn3c2nc2ccccc23)c1` was tested, and the inhibition was inactive: -6.46%. `COc1ccc(Cc2nc3ccccc3n2CC(=O)N/N=C/c2ccc(C)cc2O)cc1OC` was tested, and the inhibition was inactive: -3.63%. `CN1CN(c2ccccc2)C2(CCN(CCCSc3ccccc3NC(=O)/C=C/c3ccccc3)CC2)C1=O` was tested, and the inhibition was inactive: 13.7%. In the case of `CCN(c1ccccc1)S(=O)(=O)c1ccc(OC)c(NC(=O)Cn2cnc3c2c(=O)n(C)c(=O)n3C)c1`, the inhibition is reported as inactive: 2.82%. `CCN(CC)c1ccc(NC(=O)Cn2c(C(C)NC(=O)c3ccccc3)nc3ccccc32)cc1` (stereo not drawn) was tested, and the inhibition was inactive: 6.85%. With `Cc1ccc(C(=O)OC2CN3CCC2CC3)cc1` (stereo not drawn) the inhibition was inactive: 4.97%. For `CC1CCC(C(C)C)C(OP(=O)(Nc2ccccn2)c2ccccc2)C1` (stereo not drawn), the inhibition was inactive: -2.98%. With `CCN(CC)C(=O)Cn1c(=O)n(C)c2ccccc21` the inhibition was inactive: -11.8%. For `Cc1nn(-c2ccccc2)c2c1P(=O)(N1CCOCC1)N(C)C(c1ccccc1)=N2` (stereo not drawn), the inhibition was inactive: -7.32%. `Cc1cccc(Cn2c(=O)c3c(nc4n3CCN4Cc3ccco3)n(C)c2=O)c1` was tested, and the inhibition was inactive: -7.35%. With `O=C(Cn1c(C(F)(F)F)nc2ccccc21)NCCN1CCCC1` the inhibition was inactive: -4.74%. With `Cc1cccc(C)c1NC(=O)N1CCC(n2c(=O)[nH]c3ccccc32)CC1` the inhibition was inactive: -21.1%. For `c1ccc2c(c1)nc(-c1ccncc1)n2CCNc1nc(CN2CCCCC2)cs1`, the inhibition was inactive: -13.1%. With `CCn1cc(Cl)c(C(=O)Nc2nc3ccccc3n2CCN2CCCCC2)n1` the inhibition was inactive: 1.04%. In the case of `CCCC(=O)Nc1ccc(C(=O)/C=C/c2ccc(SC)cc2)cc1`, the inhibition is reported as inactive: 1.81%. With `CC(C)(C)NC(=O)Cn1c(SCC(=O)NCc2cccs2)nc2ccccc21` the inhibition was inactive: 1.94%. For `O=C(Cn1c(=O)n(CC2CS2)c2ccccc21)N1CCCCCC1` (stereo not drawn), the inhibition was inactive: 8.81%.
